PMC1521118 (Environmental Health Perspectives, 1993)

Test system: Salmonella typhimurium TA98
Settings: without (-) S9; 100 ng/plate

Nc1c2ncn(C(c3ccccc3)c3ccccc3)c2nc[n+]1[O-] [9-Benzhydryladenine-1-N-oxide]
histidine revertants/plate, TA98: 19 +4 histidine revertants/plate
